Results: patent US7217527B2, “Assay for phosphodiesterase function” (Vanderbilt University, priority 2003, dated 2007)

Molecular target: His-Tag PDE5 (Bos taurus, UniProt Q28156)
Experiment: Specificity: effect of unlabeled compounds on [^3H]sildenafil binding to PDE5 (FIG. 3, FIG. 4)
Design: The full-length bovine PDE5 cDNA in BacPAK9 (Clontech) purified by QIAGEN was starting material; made in house; host or cells: Sf9 insect cells (baculovirus, Bac-to-Bac); species or system bovine
[1] = 6 nM [^3H]sildenafil, competitor at fourteen-fold excess ([…])

| Compound | effect on [^3H]sildenafil binding [1] | effect on [^3H]sildenafil binding | also measured |
| --- | --- | --- | --- |
| Nc1nc2c(ncn2[C@@H]2O[C@H](COP(=O)(O)O)[C@@H](O)[C@H]2O)c(=O)[nH]1 [5′-GMP] |  |  | effect on [^3H]sildenafil binding (6 nM [^3H]sildenafil, competitor at 233,000-fold excess (1.4 mM)): no significant effect |
| CC(C)Cn1c(=O)n(C)c(=O)c2[nH]cnc21 [IBMX, 3-isobutyl-1-methylxanthine] |  |  | inhibition of [^3H]sildenafil binding (6 nM [^3H]sildenafil, 0.36 mM competitor): more than 90% |
| COC(=O)c1c(-c2cc(OC)c(OC)c(OC)c2)c2ccnc(OCc3ncccn3)c2c(=O)n1Cc1ccnc(C)c1 [T-0156] | strongly inhibitory |  |  |
| Nc1nc2c(ncn2[C@@H]2O[C@@H]3COP(=O)(O)O[C@H]3[C@H]2O)c(=O)[nH]1 [cGMP] |  | partially inhibitory |  |
| CN(C(=O)CCCOc1ccc2[nH]c(=O)ccc2c1)C1CCCCC1 [cilostamide] | no significant effect |  |  |
| COc1ccc(C2CNC(=O)C2)cc1OC1CCCC1 (stereo not drawn) [rolipram] |  | no significant effect |  |
| CCCc1nn(C)c2c(=O)[nH]c(-c3cc(S(=O)(=O)N4CCN(C)CC4)ccc3OCC)nc12 [sildenafil] |  | strongly inhibitory |  |
| CCOC(=O)C1=C[C@]2(CC)CCCN3CCc4c(n1c1ccccc41)[C@@H]32 [vinpocetine] | no significant effect |  |  |
| EHNA |  | no significant effect |  |

Read-outs that look alike come from different tables or passages of the source.
